# Laboratory results published in BindingDB's records for doi:10.1002/(SICI)1098-2396(200002)35:2<79::AID-SYN1>3.0.CO;2-X (Institut De Recherches Servier, 2000).
# Amino acid sequences for entries named in this document (tags omitted). A change or cut given only in a name is not applied to a line headed by its entry.
# UniProt P28222, whole entry: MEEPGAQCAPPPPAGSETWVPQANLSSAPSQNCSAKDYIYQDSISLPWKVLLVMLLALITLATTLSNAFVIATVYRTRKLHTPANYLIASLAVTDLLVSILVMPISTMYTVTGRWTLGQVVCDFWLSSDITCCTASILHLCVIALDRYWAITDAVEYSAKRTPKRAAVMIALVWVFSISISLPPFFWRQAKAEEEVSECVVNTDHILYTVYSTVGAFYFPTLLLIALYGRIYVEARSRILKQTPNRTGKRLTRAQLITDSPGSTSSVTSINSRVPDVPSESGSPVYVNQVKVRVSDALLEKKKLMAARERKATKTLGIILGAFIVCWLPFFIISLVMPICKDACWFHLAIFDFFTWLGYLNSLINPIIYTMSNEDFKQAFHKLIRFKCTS
# UniProt P28335: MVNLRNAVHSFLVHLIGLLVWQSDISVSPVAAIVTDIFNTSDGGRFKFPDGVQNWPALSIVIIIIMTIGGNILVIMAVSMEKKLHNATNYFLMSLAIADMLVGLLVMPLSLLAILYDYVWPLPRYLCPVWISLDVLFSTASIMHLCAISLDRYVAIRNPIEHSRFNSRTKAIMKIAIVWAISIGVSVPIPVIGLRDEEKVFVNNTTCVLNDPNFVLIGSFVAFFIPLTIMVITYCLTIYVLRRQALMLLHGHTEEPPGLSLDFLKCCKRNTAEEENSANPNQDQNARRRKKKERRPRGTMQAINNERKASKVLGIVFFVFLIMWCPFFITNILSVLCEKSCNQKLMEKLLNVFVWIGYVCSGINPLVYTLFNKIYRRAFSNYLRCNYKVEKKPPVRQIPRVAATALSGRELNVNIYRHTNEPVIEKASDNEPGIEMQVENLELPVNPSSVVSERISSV
# Experiments:
# [1] = biological target: T1, 5-hydroxytryptamine receptor 1B (Homo sapiens, UniProt P28222)
# [2] = biological target: T1, 5-hydroxytryptamine receptor 1B; remark: listed apart in the source
# [3] = biological target: 5-hydroxytryptamine receptor 2C (Homo sapiens, UniProt P28335)
smiles,measurement,setting,value
COC(=O)[C@@H]1[C@H]2C[C@H]3c4[nH]c5ccccc5c4CCN3C[C@@H]2CC[C@@H]1O [yohimbic acid methyl ester],Ki,[1],158 nM
same,Ki,[2],158 nM
same,Ki,[3],1000 nM
